From patent US7695936

Target: CD4-IgG immunoadhesin, wild-type CH3 (human) (UniProt P01730)
Test: co-transfection of 293S cells (Ia:H:L DNA 6:1:3), protein A purification, SDS-PAGE, scanning laser densitometry

Substance: CD4-IgG immunoadhesin, wild-type CH3 (from UniProt P01730 26-205) (Fc fusion)
- % Ia homodimer of the recovered products: 22.5%
